Screens deposited in PubChem by Broad Institute.
Yeast UUG start = modulators of yeast start codon fidelity, primary screen, whole organism, S. cerevisiae, single point, plate reader | AID 602363, 2012 | S. cerevisiae UUG-firefly luciferase reporter, luminescence/redox ratio | activity score, % at 18.7 µM | hit rate 0.13% among 350,000;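 active = replicate mean at a twofold rise or more, about +100% in these data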;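 also: firefly luciferase made from a UUG start codon reports start codon fidelity; reporter light over untreated wells divided by growth signal over untreated wells; some hits fall short of that in this replicate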
SR-BI DiI-HDL act = activators of SR-BI mediated HDL lipid uptake. hit rate 0.096% among 320,000. activation, % at 12.5 µM. CHO ldlA[mSR-BI] cells, DiI-HDL uptake fluorescence, 3 h; 100 = double the neutral-control signal;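 active means mean replicate activation of at least 60% and every replicate at or above 60%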;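 further: 0% = median plate neutral-control signal and 100% = twice that signal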
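Test system: SR-BI-overexpressing, LDLR-lacking CHO cells; Medium: Ham's F12 with 0.5% BSA, HEPES 25 mM, pH 7.4; Schedule: 3 h, 37 °C; Technique: bottom-read fluorescence, 550/595 nm.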
GSIS activator = primary screen for activators of insulin secretion dependent on glucose, INS-1E cells, GLuc reporter luminescence; hit rate 0.61% among 370,000; activation, % at 16.6 µM; INS-1E GLuc reporter insulin secretion, 2-3 h;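 active means lowest replicate activation of at least 40%, so every replicate reaches that level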;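 further: 0% = median of neutral control wells and 100% = median of IBMX positive control wells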
SR-BI HDL uptake = blocks mouse SR-BI lipid uptake from DiI-HDL. ldlA[mSR-BI] CHO cells, DiI-HDL uptake fluorescence, 3 h. inhibition, % at 12.5 µM. hit rate 0.96% among 320,000;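 active means mean replicate inhibition of at least 70% and a set share of replicates each scoring 70 or more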;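 further: 0% = median of neutral control wells and 100% = median of positive control wells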
Active calls of the source: *; x = no result. An excerpt weighted towards active compounds, which were near 1.3% of everything screened.

nr | SMILES | Yeast UUG start | SR-BI DiI-HDL act | GSIS activator | SR-BI HDL uptake
1 | COc1ccc(CC(=O)NNS(=O)(=O)c2ccccc2[N+](=O)[O-])cc1OC | -7 | 17 | 24 | -17
2 | Cc1noc(C)c1NC(=O)N(C)C[C@H]1Oc2ccc(NC(=O)Nc3ccc4c(c3)OCO4)cc2CC(=O)N([C@H](C)CO)C[C@@H]1C | -2 | x | 3 | x
3 | CC(C)[C@@H]1CC=CC[C@H](C)Oc2ccccc2C(=O)N(C)[C@@H](Cc2ccccc2)C(=O)N1 (mixture of isomers) | x | x | -6 | x
4 | COc1ccc(/C=C/C(=O)Oc2ccc(/C=N\NC(=O)c3ccc(F)cc3)cc2)cc1 | x | 6 | -11 | -6
5 | COc1ccc(/C=C/C(=O)Oc2cccc(/C=N/NC(=O)c3cccc(F)c3)c2)cc1 | 13 | -73 | x | 73*
6 | C[C@@H]1CN([C@@H](C)CO)C(=O)Cc2cc(NS(=O)(=O)c3ccc(F)cc3)ccc2O[C@H]1CN(C)C(=O)Nc1cccc2ccccc12 | x | x | -6 | x
7 | COc1ccc2cc(-c3cc(C(=O)OCC(=O)NC4CCS(=O)(=O)C4)c4ccccc4n3)ccc2c1 (stereo unspecified) | x | -9 | 91* | 9
8 | COc1ccc(-c2cc(C(=O)Nc3c(C)n(C)n(-c4ccccc4)c3=O)c3ccccc3n2)cc1 | -7 | x | 7 | x
9 | COc1ccc2cc(-c3cc(C(=O)OCC(=O)Nc4c(C)n(C)n(-c5ccccc5)c4=O)c4ccccc4n3)ccc2c1 | -11 | -76 | 5 | 76*
10 | CCC(=O)N1CC2(C1)[C@@H](c1ccccc1)[C@@H](CO)N2C(=O)c1cccnc1 | x | x | 1 | x
11 | COc1cc2c(cc1[N+](=O)[O-])n(C(C)C)c(=O)n2C(C)C | x | 11 | 58* | -11
12 | O=C(Nc1cccc(F)c1)N1CC(=O)N2[C@@H](CO)[C@@H](c3ccc(-c4ccc(F)cc4)cc3)[C@@H]2C1 | x | x | -24 | x
13 | CCCCNC(=O)c1cn(CC)c2ccc(S(=O)(=O)N3CCCC3)cc2c1=O | -20 | -11 | 0 | 11
14 | CCn1cc(C(=O)NCCc2ccccc2)c(=O)c2cc(S(=O)(=O)N3CCCC3)ccc21 | 4 | -73 | -1 | 73*
15 | OCCN1CCN(CC(O)COc2ccc(C34CC5CC(CC(C5)C3)C4)cc2)CC1 (stereo unspecified) | x | 22 | 90* | -22
16 | CC(C)(C)SCCNC(=O)c1ccc(Cl)c([N+](=O)[O-])c1 | x | 79* | 10 | -79
17 | COc1ccc(C(=O)N=C2CCC(C#N)=C3c4cc(OC)c(OC)cc4CCN23)cc1 | x | -2 | 109* | 2
18 | CCOC(=O)c1nn(-c2ccccc2)c2nc(Nc3ccccc3)cc(=O)n12 | -12 | -22 | 78* | 22
19 | N=C(N)c1ccc(N=Nc2c(O)ccc3c2[nH]c2ccccc23)cc1 | x | -55 | 47* | 55
20 | Oc1ccc(N=Nc2c(O)ccc3ccccc23)cc1 | -8 | -70 | -8 | 70

SR-BI DiI-HDL act, entries above that show a hit.
nr | SMILES | Yeast UUG start | SR-BI DiI-HDL act | GSIS activator | SR-BI HDL uptake
16 | CC(C)(C)SCCNC(=O)c1ccc(Cl)c([N+](=O)[O-])c1 | x | 79* | 10 | -79

Going on with the list:
nr | SMILES | Yeast UUG start | SR-BI DiI-HDL act | GSIS activator | SR-BI HDL uptake
21 | C[C@H](CO)N1C[C@H](C)[C@@H](CN(C)Cc2ccncc2)Oc2ccc(NS(=O)(=O)c3cn(C)cn3)cc2C1=O | -1 | x | -3 | x
22 | Cc1nc(N)c(C#N)c(-c2cccnc2)c1C | -2 | 17 | 48* | -17
23 | CCOC(=O)c1sc(NC(C)=O)nc1-c1ccccc1 | -10 | -27 | 43* | 27
24 | COC(=O)Nc1nc(-c2ccccc2)c(C(=O)c2ccccc2)s1 | -11 | -91 | x | 91*
25 | COC(=O)Nc1nc(C)c(C(=O)c2ccccc2)s1 | -11 | 22 | x | -22
26 | C[C@H](CO)N1C[C@H](C)[C@@H](CN(C)S(=O)(=O)c2ccc(F)cc2)Oc2c(NS(=O)(=O)c3cn(C)cn3)cccc2C1=O | x | x | 30 | x
27 | COC(=O)[C@@H]1[C@@H](CO)[C@@H]2Cn3c(cccc3=O)[C@@H]2N1C(=O)C1CCCC1 | x | x | 5 | x
28 | Cc1ccc(S(=O)(=O)N(C)c2ccc(OCC(=O)Nc3cccc(-n4cnnn4)c3C)cc2)cc1 | -1 | -84 | 4 | 84*
29 | C[C@H]1CN([C@@H](C)CO)C(=O)c2cc(NC(=O)C3CCCCC3)ccc2O[C@@H]1CN(C)CC1CC1 | -7 | x | 40 | x
30 | COc1ccc(/C=C\C(=O)NCc2ccc3[nH]c(C)cc3c2)cc1OC | -1 | -38 | 8 | 38
31 | COc1cc(/C=C\C(=O)NCc2ccc3[nH]c(C)cc3c2)cc(OC)c1OC | 1 | -76 | -4 | 76*
32 | N=c1c(-c2nc3ccccc3[nH]2)cc(C(=O)c2cccs2)nn1-c1ccccc1 | x | -62 | x | 62
33 | N=c1c(-c2nc3ccccc3[nH]2)cc(C(=O)c2ccco2)nn1-c1ccccc1 | -10 | -73 | 3 | 73*
34 | Cc1noc(C)c1S(=O)(=O)Nc1ccc2c(c1)C(=O)N([C@H](C)CO)C[C@H](C)[C@@H](CN(C)S(C)(=O)=O)OCCCC[C@@H](C)O2 | -9 | x | 18 | x
35 | CC[C@@H]1CC2=C(C(=O)OC(C)(C)O2)[C@H](c2ccc(F)cc2)O1 | -9 | x | 45* | x
36 | CC1(C)OC(=O)C2=C(C[C@@H](CCc3ccccc3)O[C@@H]2c2ccc(F)cc2)O1 | x | x | -35 | x
37 | COc1ccccc1NC(=O)CSc1nnc(-c2ccccc2)o1 | -6 | 9 | 84* | -9
38 | Cc1ccc(C(=O)OCC(=O)N2c3ccccc3NC(=O)C2(C)C)cc1S(=O)(=O)N1CCCCC1 | -14 | -84 | 16 | 84*
39 | CNC[C@@H]1Oc2ccc(N(C)C)cc2C(=O)N(C)C[C@@H]1C | x | x | 6 | x
40 | CN(C)c1ccc(CC(=O)N2CCCCC2c2cc(C(=O)Nc3ccccc3Cl)no2)cc1 (stereo unspecified) | -15 | x | 45* | x
41 | CN1[C@H](C(=O)NCCc2ccccc2)[C@@H](CO)[C@@H]2Cn3c(cccc3=O)[C@@H]21 | x | x | 8 | x
42 | OC(CNCCC1C=Nc2ccccc21)Cn1c2ccc(Cl)cc2c2cc(Cl)ccc21 (stereo unspecified) | -9 | 19 | 647* | -19
43 | OC(CNCC1CCCO1)Cn1c2ccc(Cl)cc2c2cc(Cl)ccc21 (stereo unspecified) | -10 | -14 | x | 14
44 | COc1ccc(/C=C/C(=O)NC(=S)NN2CCCCC2c2cccnc2)cc1OC (stereo unspecified) | x | -27 | 70* | 27
45 | CCOc1cc(/C=C/c2ccc3cccc([N+](=O)[O-])c3n2)ccc1OCC(=O)N(C)C | x | -83 | 1 | 83*
46 | COc1cc(/C=C/c2ccc3cccc([N+](=O)[O-])c3n2)ccc1OCC#N | x | -63 | -4 | 63
47 | CCOc1cc(/C=C/c2ccc3cccc([N+](=O)[O-])c3n2)ccc1O | -14 | -81 | -3 | 81*
48 | CCOC(=O)/C(=N\Nc1ccc(C(C)=O)cc1)c1csc(Nc2ccccc2)n1 | x | -51 | 6 | 51
49 | CCOC(=O)/C(=N\Nc1ccccc1[N+](=O)[O-])c1csc(N)n1 | x | -78 | -14 | 78*
50 | COc1ccccc1S(=O)(=O)N[C@H]1C=C[C@@H](CC(=O)N2CCCCC2)O[C@H]1CO | x | x | 6 | x
51 | O=C(O)C[C@@H]1C[C@@H]2c3cc(NC(=O)c4ccc5c(c4)OCO5)ccc3O[C@@H]2[C@@H](CO)O1 | 2 | x | -5 | x
52 | CN1C(=O)CSc2ccc(NC(=O)N3CCN(c4ccccc4)CC3)cc21 | x | -78 | 0 | 78*

Arranged by value in SR-BI HDL uptake (highest first): some entries from above
entry	Compound	Yeast UUG start	SR-BI DiI-HDL act	GSIS activator	SR-BI HDL uptake
47	CCOc1cc(/C=C/c2ccc3cccc([N+](=O)[O-])c3n2)ccc1O	-14	-81	-3	81*
52	CN1C(=O)CSc2ccc(NC(=O)N3CCN(c4ccccc4)CC3)cc21	x	-78	0	78*
48	CCOC(=O)/C(=N\Nc1ccc(C(C)=O)cc1)c1csc(Nc2ccccc2)n1	x	-51	6	51
43	OC(CNCC1CCCO1)Cn1c2ccc(Cl)cc2c2cc(Cl)ccc21 (stereo unspecified)	-10	-14	x	14
